In assay [1] the test system is A549. The text has this:
(§1) Results from DTP analysis of the NCI-60 screen were independently validated with each cell line to determine which NSCLC cell lines required Hedgehog activity to proliferate.

Assay [2] has as its system HOP62. The conditions noted are these: 5, 10, 15, 20, 25 AM, proliferation measured 72 hours later, normalized to tomatidine.
Excerpt: as §1

In assay [3] the test system is NCI-H322M. The conditions noted are these: 5, 10, 15, 20, 25 AM, proliferation measured 72 hours later, normalized to tomatidine.
Excerpt: as §1

For the molecule `CC1=C2C[C@H]3[C@@H](CC=C4C[C@@H](O)CC[C@@]43C)[C@@H]2CC[C@]12O[C@@H]1C[C@H](C)CN[C@H]1[C@H]2C` [Cyclopamine, cyclopamine], the “Sensitivity of cell proliferation to cyclopamine” value in assay [1] (A549 cells (High-Gli)) is reported as “relatively insensitive”; in assay [2], “sensitive”; in assay [3], “sensitive”. Further, the “Sensitivity of cell proliferation to cyclopamine after Gli1 siRNA” value in assay [1] (A549 transfected with Gli1 siRNA (SEQ ID NO:9) for 30 hours, then cyclopamine, proliferation measured 48 hours later) is recorded as “cyclopamine sensitivity”. The “Sensitivity of cell proliferation to cyclopamine after random siRNA” value in assay [1] (A549 treated with a random siRNA (control), followed by cyclopamine) is recorded as “relatively cyclopamine-insensitive”.

The values are drawn from patent US8273701B2, “Method for diagnosing non-small cell lung carcinoma” (Trustees of Dartmouth College, priority 2005, dated 2012).
